According to PubChem BioAssay AID540317 (National Center for Advancing Translational Sciences (NCATS), 2011):
The entries are a selection whose mix differs from that of the whole data set. Results filed as inconclusive are left out. Calls of active or inactive are those of the source. Calls follow the shape of the dose curve; as a rule, active = well fitted inhibition curve with a large enough effect; inconclusive = small, poorly fitted or top-dose-only effect; inactive = no such curve, though single readings can be large or run the other way.
Also: nearly all actives have a fitted effect of over 70% in size.

By UniProt entry, the sequences of proteins in these tests, tags left out.
UniProt P83916, whole entry: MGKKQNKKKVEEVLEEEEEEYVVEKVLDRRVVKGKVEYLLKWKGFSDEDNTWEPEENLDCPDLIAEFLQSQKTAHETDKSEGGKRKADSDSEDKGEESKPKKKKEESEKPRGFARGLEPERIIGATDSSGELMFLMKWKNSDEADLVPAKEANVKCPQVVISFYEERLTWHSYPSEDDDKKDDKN

The molecules below were run against Chromobox protein homolog 1 (Homo sapiens) (UniProt P83916) (assay: HTS for Inhibitors of HP1-beta Chromodomain Interactions with Methylated Histone Tails). Settings: AlphaScreen HP1-beta / biotin-H3K9me3 peptide binding; at 114 µM (top of the series).
In the case of `CN(C)CCOC(=O)C(O)(c1ccccc1)C1CCCC1` (centres undefined), the activity change, negative = inhibition is reported as inactive: 28.1%.
In the case of `COc1ccc(OP(C)(=O)Nc2ccccn2)cc1` (centres undefined), the activity change, negative = inhibition is reported as inactive: 47.3%.
In the case of `COc1ccccc1OP(C)(=O)Nc1ccc(Br)cc1` (centres undefined), the activity change, negative = inhibition is reported as inactive: 14.1%.
`CCc1ccc(OP(C)(=O)O)cc1` was tested, and the activity change, negative = inhibition was inactive: 5.5%.
With `COc1ccccc1OP(C)(=O)Nc1ccc(C)cc1C` (centres undefined) the activity change, negative = inhibition was inactive: 18.3%.
`CP(=O)(Nc1ccccn1)Oc1ccccc1` (centres undefined) was tested, and the activity change, negative = inhibition was inactive: 16.7%.
With `Cc1c(NP(C)(=O)Oc2ccc(C(C)C)cc2)c(=O)n(-c2ccccc2)n1C` (centres undefined) the activity change, negative = inhibition was inactive: 26.8%.
In the case of `COc1ccc(OP(C)(=O)Nc2ccccc2Br)cc1` (centres undefined), the activity change, negative = inhibition is reported as inactive: 24.3%.
For `COc1ccccc1OP(C)(=O)Nc1ccc(C)c(C)c1` (centres undefined), the activity change, negative = inhibition was inactive: 3.82%.
In the case of `Cc1cc(C)cc(OP(C)(=O)Nc2cccc(C(F)(F)F)c2)c1` (centres undefined), the activity change, negative = inhibition is reported as inactive: 41.8%.
With `CP(=O)(Nc1ccc(Cl)cc1Cl)Oc1ccccc1` (centres undefined) the activity change, negative = inhibition was inactive: 42%.
For `CCCCCCCCCCCCCCCC1C[N+](C)(C)CCOP(C)(=O)O1` (centres undefined), the activity change, negative = inhibition was inactive: 12.1%.
With `CP(=O)(OCCOc1ccccc1)OCCOc1ccccc1` the activity change, negative = inhibition was inactive: 40.4%.
With `CP(=O)(OC12CC3CC(CC(C3)C1)C2)OC12CC3CC(CC(C3)C1)C2` the activity change, negative = inhibition was inactive: 17.9%.
`CCOC(=O)c1ccc(NP(C)(=O)Oc2ccc(Cl)cc2)cc1` (centres undefined) was tested, and the activity change, negative = inhibition was inactive: 39.8%.
With `Nc1ccc2c(ccc3cccnc32)n1.O=[N+]([O-])c1cc([N+](=O)[O-])c(O)c([N+](=O)[O-])c1` the activity change, negative = inhibition was inactive: 22.7%.
In the case of `CCc1ccc(OP(C)(=O)Nc2cccnc2)cc1` (centres undefined), the activity change, negative = inhibition is reported as inactive: 34.3%.
`CP(=O)(Oc1ccccc1)N1CCOC1=O` (centres undefined) was tested, and the activity change, negative = inhibition was inactive: 43.3%.
With `O=C(OCCCN1CCCC1)C(O)(c1ccccc1)C1CCCCC1` (centres undefined) the activity change, negative = inhibition was inactive: 25.1%.
For `COc1ccccc1OP(C)(=O)Nc1c(C)n(C)n(-c2ccccc2)c1=O` (centres undefined), the activity change, negative = inhibition was inactive: 32.1%.
For `COc1ccc(OP(C)(=O)Nc2ccc(Br)cc2)cc1` (centres undefined), the activity change, negative = inhibition was inactive: 29.6%.
For `CCN(CC)CC(O)COC(=O)C(O)(c1ccccc1)C1CCCCC1` (centres undefined), the activity change, negative = inhibition was inactive: 28.4%.
`CN(C)C(=O)c1c([N+](=O)[O-])cc([N+](=O)[O-])cc1[N+](=O)[O-]` was tested, and the activity change, negative = inhibition was inactive: 76.5%.
With `CP(=O)(Nc1ccc(Cl)cc1)Oc1ccc(F)cc1` (centres undefined) the activity change, negative = inhibition was inactive: 26.9%.
`COc1ccccc1OP(C)(=O)Nc1ccccc1Br` (centres undefined) was tested, and the activity change, negative = inhibition was inactive: 21.5%.
For `CC(C)(C)c1ccc(OP(C)(=O)O)cc1`, the activity change, negative = inhibition was inactive: 35.2%.
With `CCOP(C)(=S)SCC(=O)NC(C)(CC)C(=O)O` (centres undefined) the activity change, negative = inhibition was inactive: 46.1%.
With `CP(=O)(Nc1ccc(SC(F)(F)F)cc1)Oc1ccc(F)cc1` (centres undefined) the activity change, negative = inhibition was inactive: 45%.
`Cc1ccccc1NP(C)(=O)Nc1ccccc1C` was tested, and the activity change, negative = inhibition was inactive: 28.4%.
With `CP(=O)(Nc1ccc2c(c1)OCCO2)Oc1ccccc1` (centres undefined) the activity change, negative = inhibition was inactive: 1.55%.
For `COc1ccc(NP(C)(=O)Oc2ccccc2OC)cc1` (centres undefined), the activity change, negative = inhibition was inactive: -8.35%.
For `CN(C)CCOC(=O)C(O)(c1ccccc1)C1CCCCC1` (centres undefined), the activity change, negative = inhibition was inactive: 26.2%.
`COc1ccc(OP(C)(=O)Nc2cccc(Br)c2)cc1` (centres undefined) was tested, and the activity change, negative = inhibition was inactive: 27.2%.
In the case of `Cc1c(C(c2ccc3c(c2)OCO3)c2c(C)n(C)n(-c3ccccc3)c2=O)c(=O)n(-c2ccccc2)n1C.O=[N+]([O-])c1cc([N+](=O)[O-])c(O)c([N+](=O)[O-])c1`, the activity change, negative = inhibition is reported as inactive: 40%.
In the case of `Cc1cc(-c2cccc3ccccc23)c(C)cn1.O=[N+]([O-])c1cc([N+](=O)[O-])c(O)c([N+](=O)[O-])c1`, the activity change, negative = inhibition is reported as inactive: 38.4%.
For `O=[N+]([O-])c1ccc(OP2(=O)COCCO2)cc1` (centres undefined), the activity change, negative = inhibition was inactive: 7.36%.
`COc1ccc(OP(C)(=O)Nc2ccc(SC(F)(F)F)cc2)cc1` (centres undefined) was tested, and the activity change, negative = inhibition was inactive: 54.5%.
In the case of `CCOC(=O)c1ccc(NP(C)(=O)Oc2ccc(F)cc2)cc1` (centres undefined), the activity change, negative = inhibition is reported as inactive: 31.8%.
For `CCCCCOc1ccc(NP(C)(=O)Oc2ccc(Cl)cc2Cl)cc1` (centres undefined), the activity change, negative = inhibition was inactive: 21.8%.
With `CP(=O)(Nc1ccccc1)Oc1ccc(F)cc1` (centres undefined) the activity change, negative = inhibition was inactive: 17.3%.
For `CCN(CC)CCCOC(=O)C(O)(c1ccccc1)C1CCCCC1` (centres undefined), the activity change, negative = inhibition was inactive: 34.6%.
With `Cc1c([N+](=O)[O-])cc([N+](=O)[O-])c(Br)c1[N+](=O)[O-]` the activity change, negative = inhibition was inactive: 3.91%.
In the case of `CC(C)c1ccc(OP(C)(=O)Nc2ccc(SC(F)(F)F)cc2)cc1` (centres undefined), the activity change, negative = inhibition is reported as inactive: 39.9%.
For `CP(=O)(Nc1ccccc1F)Oc1ccccc1` (centres undefined), the activity change, negative = inhibition was inactive: 39.6%.
With `O=C(OCCN1CCN(CCOCc2ccccc2)CC1)C(O)(c1ccccc1)c1ccccc1` the activity change, negative = inhibition was inactive: 9.43%.
In the case of `Cc1cc(C)cc(OP(C)(=O)Nc2ccc(C)cc2C)c1` (centres undefined), the activity change, negative = inhibition is reported as inactive: 10.6%.
For `CCOC(=O)c1ccc(NP(C)(=O)Oc2cc(C)cc(C)c2)cc1` (centres undefined), the activity change, negative = inhibition was inactive: 9.75%.
`COc1ccccc1OP(C)(=O)Nc1cccc(Br)c1` (centres undefined) was tested, and the activity change, negative = inhibition was inactive: 44.3%.
In the case of `Cc1cc(C)cc(OP(C)(=O)Nc2ccccn2)c1` (centres undefined), the activity change, negative = inhibition is reported as inactive: 20.3%.
For `CP(=O)(Nc1cccc(Br)c1)Oc1ccccc1` (centres undefined), the activity change, negative = inhibition was inactive: 36.2%.
For `Cc1ccc(C)c(NP(C)(=O)Oc2ccccc2)c1` (centres undefined), the activity change, negative = inhibition was inactive: 21%.
For `CC1=NCCc2c1[nH]c1ccccc21.O=[N+]([O-])c1cc([N+](=O)[O-])c(O)c([N+](=O)[O-])c1`, the activity change, negative = inhibition was inactive: -5.4%.
With `CC1=C2N=C(C=C3N=C(C(C)=C4[N-][C@@](C)([C@@H]5N=C1[C@](C)(CCC(=O)NC[C@@H](C)OP(=O)([O-])O[C@H]1[C@@H](O)[C@@H](n6cnc7cc(C)c(C)cc76)O[C@@H]1CO)[C@H]5CC(N)=O)[C@@](C)(CC(N)=O)[C@@H]4CCC(N)=O)[C@@](C)(CC(N)=O)[C@@H]3CCC(N)=O)C(C)(C)[C@@H]2CCC(N)=O.[C-]#N.[Co+3]` the activity change, negative = inhibition was inactive: -0.907%.
With `O=[N+]([O-])c1cc([N+](=O)[O-])c(Nc2nnnn2CCO)c([N+](=O)[O-])c1` the activity change, negative = inhibition was inactive: -19.5%.
With `CCCOc1ccc(NP(C)(=O)Oc2ccc(Cl)cc2)cc1` (centres undefined) the activity change, negative = inhibition was inactive: 0.354%.
For `CP(=O)(Nc1ccc(SC(F)(F)F)cc1)Oc1ccccc1` (centres undefined), the activity change, negative = inhibition was inactive: 10.7%.
With `COc1ccccc1OP(C)(=O)Nc1c(C)cccc1C` (centres undefined) the activity change, negative = inhibition was inactive: 66.7%.
`CN1CCCCC1COC(=O)C1(O)c2ccccc2CCc2ccccc21` (centres undefined) was tested, and the activity change, negative = inhibition was inactive: 19.2%.
`O=[N+]([O-])c1cc([N+](=O)[O-])c(-n2nnc3ccccc32)c([N+](=O)[O-])c1` was tested, and the activity change, negative = inhibition was inactive: 27.8%.
With `Cc1nc2ccc3ccccc3c2s1.O=[N+]([O-])c1cc([N+](=O)[O-])c(O)c([N+](=O)[O-])c1` the activity change, negative = inhibition was inactive: 10.3%.
In the case of `Cc1cc(C)cc(OP(C)(=O)Nc2ccc(SC(F)(F)F)cc2)c1` (centres undefined), the activity change, negative = inhibition is reported as inactive: 19.5%.
With `CP(=O)(NC(=O)Nc1ccccc1)Oc1ccccc1` (centres undefined) the activity change, negative = inhibition was inactive: 16.6%.
For `CCc1ccc(OP(C)(=O)N2CCN(c3ccc([N+](=O)[O-])cc3)CC2)cc1` (centres undefined), the activity change, negative = inhibition was inactive: -5.73%.
In the case of `CP(=O)(Oc1ccccc1)OC(c1ccccc1)C(F)(F)F` (centres undefined), the activity change, negative = inhibition is reported as inactive: 35.2%.
`Cc1cccc(C)c1OP(C)(=O)Nc1ccc(SC(F)(F)F)cc1` (centres undefined) was tested, and the activity change, negative = inhibition was inactive: 17.3%.
`CP(=O)(Nc1ccc(SC(F)(F)F)cc1)Oc1ccc(Cl)cc1` (centres undefined) was tested, and the activity change, negative = inhibition was inactive: 39.7%.
In the case of `CP(=O)(Nc1ccccn1)Oc1ccc(Cl)cc1` (centres undefined), the activity change, negative = inhibition is reported as inactive: 30.8%.
`CCOP(C)(=S)SCC(=O)NC(C)C(=O)O` (centres undefined) was tested, and the activity change, negative = inhibition was inactive: 39.4%.
`CCOC(=O)c1ccc(NP(C)(=O)Oc2ccc(OC)cc2)cc1` (centres undefined) was tested, and the activity change, negative = inhibition was inactive: 29.4%.
`O=[N+]([O-])c1cc([N+](=O)[O-])c(O)c([N+](=O)[O-])c1.c1ccc(Oc2ccncc2)cc1` was tested, and the activity change, negative = inhibition was inactive: -6.75%.
For `COc1ccccc1OP(C)(=O)Nc1ccccc1` (centres undefined), the activity change, negative = inhibition was inactive: 9.92%.
For `CP(=O)(Nc1ccccc1Br)Oc1ccccc1` (centres undefined), the activity change, negative = inhibition was inactive: 45.5%.
In the case of `CP(=S)(Nn1cnnc1)Oc1ccccc1` (centres undefined), the activity change, negative = inhibition is reported as inactive: 10.2%.
For `Cc1cccc(C)c1OP(C)(N)=O` (centres undefined), the activity change, negative = inhibition was inactive: 10.1%.
`CC(C)(C)c1ccc(OP(C)(=O)Nc2ccc(SC(F)(F)F)cc2)cc1` (centres undefined) was tested, and the activity change, negative = inhibition was inactive: 34.2%.
In the case of `O=[N+]([O-])c1ccc2c(c1)C=Nc1ccccc1O2`, the activity change, negative = inhibition is reported as inactive: -4.08%.
With `O=[N+]([O-])c1cc([N+](=O)[O-])c(Nc2cccnc2)c([N+](=O)[O-])c1` the activity change, negative = inhibition was inactive: 18%.
`COc1ccc(OP(C)(=O)Nc2cccc(F)c2)cc1` (centres undefined) was tested, and the activity change, negative = inhibition was inactive: 60.3%.
`COc1ccccc1OP(C)(=O)Nc1cc(Cl)ccc1C` (centres undefined) was tested, and the activity change, negative = inhibition was inactive: 41.2%.
For `Cc1cc(C)cc(OP(C)(N)=O)c1` (centres undefined), the activity change, negative = inhibition was inactive: 27.9%.
With `CCOC(=O)c1ccc(NP(C)(=O)Oc2ccccc2)cc1` (centres undefined) the activity change, negative = inhibition was inactive: 8.17%.
For `Cc1ccc(NP(C)(=O)Oc2ccccc2)c(C)c1` (centres undefined), the activity change, negative = inhibition was inactive: 54.4%.
In the case of `COc1ccccc1OP(C)(=O)Nc1ccc(C)cc1` (centres undefined), the activity change, negative = inhibition is reported as inactive: 16.1%.
`CCN(CC)CCCOC(=O)C(O)(c1ccccc1)c1ccccc1` was tested, and the activity change, negative = inhibition was inactive: 36.2%.
